# What was measured:
# Chains of the proteins cited; added tags and fusions are not shown. Residues count along the entry.
# UniProt P07200, 279-390 limits assumed: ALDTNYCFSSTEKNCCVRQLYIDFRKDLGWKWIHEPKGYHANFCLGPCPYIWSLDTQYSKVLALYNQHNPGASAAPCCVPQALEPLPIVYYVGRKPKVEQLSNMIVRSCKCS
# UniProt P01137, 279-390 limits assumed: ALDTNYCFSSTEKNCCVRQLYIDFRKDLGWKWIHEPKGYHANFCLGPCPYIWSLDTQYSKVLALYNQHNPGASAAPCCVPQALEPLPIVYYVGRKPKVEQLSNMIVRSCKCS
# [1] = target: purified porcine TGF-β1 (porcine) (UniProt P07200); experiment: active TGF-β sandwich ELISA, R2X capture, BDA47 detection; TGF-β concentration varied
# [2] = target: recombinant human TGF-β1 (human) (UniProt P01137); experiment: as above
# [3] = target: purified porcine TGF-β1 (porcine) (UniProt P07200); experiment: active TGF-β sandwich ELISA, R2X capture; TGF-β standards prepared in 1.4 µmol/L human α2-macroglobulin or 10% FCS
substance,measurement,setting,value
truncated extracellular domain of the type II TGF-beta receptor fused to glutathione-S-transferase (R2X) (from UniProt P37173 23-166),half-maximal change in absorbance (ΔA50%),[1],680 pmol/L
same,half-maximal change in absorbance (ΔA50%),[2],720 pmol/L
same,change of ΔA50% against standards diluted in TBS,[3],< 10%

# Reference: patent US6395494
